scFv variants of Ab-14 (heavy chain) against a SARS-CoV-2 spike peptide

All variants were tested on one target, the spike HR2 peptide PDVDLGDISGINAS (SARS-CoV-2).

Parent: Ab-14, a human scFv built as VH, a (GGGGS)3 linker, VL. Only the CDRs of the heavy chain vary.
VH: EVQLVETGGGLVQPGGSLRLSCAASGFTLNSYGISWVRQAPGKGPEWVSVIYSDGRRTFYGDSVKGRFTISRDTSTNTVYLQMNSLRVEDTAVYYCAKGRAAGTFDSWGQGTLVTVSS
VL: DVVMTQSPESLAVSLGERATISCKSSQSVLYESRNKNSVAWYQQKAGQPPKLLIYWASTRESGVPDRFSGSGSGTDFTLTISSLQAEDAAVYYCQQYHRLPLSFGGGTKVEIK

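Phage display of a naive human antibody library on the peptide gave the parent. The variants were designed computationally from a first round of random CDR variants and then made and measured. Their group label is 14H_GP_HC (GP: Gaussian process model; HC: hill climbing; a sequence that several methods proposed may carry one label only). The assay is AlphaSeq: two haploid yeast populations carry antibody and antigen on their surface. Binding brings cells together so that they mate, and sequencing counts the barcode pairs among the diploids. Each replicate has its own calibration line, from reference interactions of the BCL2 family. The assay was run in six technical replicates.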

Changes read parent residue, position, new residue, counted from the first residue of the VH shown. Numbers give log10(Kd / nM), so 0 is 1 nM and 3 is 1 µM. Smaller is tighter. Averages over replicates are reported, and they cover detected replicates only. "n.d." marks a missing value. The strain was present, yet no cells mated with the target were sequenced in that replicate, which points to weak or no binding. In the paper, a design with two or fewer of six values counts as a poor binder. A sequence measured in both rounds can read differently, since the two assays cover different ranges. Three control strains display no target. For all heavy chain designs, 1% of the pairings with them gave a signal, with a median of 2.08 and one signal in twenty below 0.84, so weak values seen in few replicates may be background. For each scFv, signals with the empty controls are counted beside the result, with their mean in brackets.

changes,"replicates, log10 nM","log10 Kd (nM), mean",empty controls
T28W+S31E+G61T+R100E+A101Q,n.d. n.d. n.d. n.d. n.d. n.d.,n.d.,0/18
S31N+R100Q+A101L,n.d. n.d. n.d. n.d. n.d. n.d.,n.d.,0/18
T28P+S31D+G61K,1.51 1.72 1.58 1.69 1.90 1.22,1.60,0/18
G26T+N30E+S53A,1.22 n.d. 0.84 1.31 1.30 1.30,1.19,0/18
S31D+R100W+A101T+D106W,n.d. n.d. n.d. n.d. n.d. n.d.,n.d.,0/18
S31D+G61K+A101V,1.25 0.74 1.04 1.23 0.77 0.89,0.99,0/18
S31E+G61I+R100N,0.17 0.07 0.26 -0.03 0.27 -0.05,0.12,0/18
N30D+R100S,1.33 0.62 1.08 1.58 0.17 1.13,0.98,0/18
S31D+F59E+A101T,0.41 0.72 0.29 0.50 0.87 0.65,0.57,1/18 (2.18)
G26K+G61Q+R100Q+A101T,n.d. n.d. n.d. n.d. n.d. 2.44,2.44,0/18
T28D+A101C+D106N,1.77 n.d. n.d. n.d. n.d. n.d.,1.77,2/18 (3.69)
S31D+D106T+S107I,0.02 0.08 -0.01 0.65 -0.21 -0.28,0.04,0/18
T28G+S31E+S53A,-0.22 -0.50 -0.17 -0.41 -0.50 -0.32,-0.35,1/18 (2.04)
S31E+G61Q+S63D+A101T,-0.42 -0.35 -0.39 -0.22 -0.15 0.99,-0.09,0/18
T28V+S31D+G61I+S63H+R100K,n.d. n.d. n.d. n.d. n.d. n.d.,n.d.,0/18
R56T+G61S,n.d. n.d. n.d. n.d. n.d. n.d.,n.d.,0/18
S31E+S53A+D106E,-0.19 -0.24 -0.35 -0.17 0.12 0.15,-0.11,0/18
S31E+G61K+R100F+S107L,1.72 1.35 0.90 1.13 1.63 1.35,1.35,0/18
T28D+S31Q+G61S+T104K,n.d. n.d. n.d. n.d. n.d. n.d.,n.d.,0/18
S31E+G61T+S63M+A101F,n.d. n.d. n.d. n.d. 0.88 n.d.,0.88,1/18 (0.91)
G61D+R100Q+A101T+S107D,0.12 0.40 -0.15 n.d. n.d. 0.82,0.30,0/18
S53A+A101L+D106M+S107I,n.d. n.d. n.d. n.d. n.d. n.d.,n.d.,0/18
T28S+G61C+R100Q+A101L,n.d. n.d. n.d. n.d. n.d. n.d.,n.d.,0/18
T28S+G61D+R100H+A101L,0.82 0.18 -0.02 0.01 0.47 0.67,0.36,0/18
T28E+S31D+G61H,0.45 0.27 0.22 0.26 0.02 0.39,0.27,0/18
S31E+R56L+G61S,0.94 0.92 1.03 1.30 1.67 1.12,1.16,0/18
F27S+S31E+G61T+A101T,1.01 0.93 0.81 1.46 2.04 0.82,1.18,0/18
T28W+S31D+F59W,n.d. 1.13 n.d. n.d. n.d. n.d.,1.13,0/18
T28S+S31W+F59Q+G61I,n.d. 1.97 2.75 2.06 2.63 n.d.,2.35,0/18
T28S+S31E+G61I+R100P+S107R,2.81 2.00 n.d. 2.20 n.d. n.d.,2.34,0/18
T28Y+S31D+F59Q+G61I,n.d. 3.44 n.d. 3.22 1.23 n.d.,2.63,0/18
T28D+G61V+R100Q+A101P,0.48 0.79 0.53 0.84 0.84 0.55,0.67,0/18
T28H+S53A+D106K,n.d. n.d. n.d. n.d. n.d. n.d.,n.d.,0/18
S31Q+R100E+S107K,n.d. n.d. n.d. n.d. n.d. n.d.,n.d.,0/18
S31E+G61T+A101N+D106I,0.60 0.81 0.60 -0.10 0.26 0.21,0.40,0/18
T28K+G61D+R100K+A101L,n.d. 1.38 1.54 2.07 1.59 1.91,1.70,1/18 (2.25)
S31E+R56M+G61S+T104F,n.d. n.d. n.d. n.d. n.d. n.d.,n.d.,2/18 (1.46)
T104S+D106T+S107V,n.d. n.d. n.d. n.d. n.d. n.d.,n.d.,0/18
T28D+S31E+S63A+S107K,-0.20 -0.21 -0.35 0.22 0.03 -0.62,-0.19,0/18
G26H+G61S+R100E+A102G,n.d. 1.54 0.63 n.d. n.d. 1.25,1.14,0/18
S31E+G103C+D106I+S107L,n.d. n.d. n.d. n.d. n.d. n.d.,n.d.,0/18
T28D+G61S+R100K+A102G,1.17 n.d. 2.42 n.d. 1.48 2.08,1.79,0/18
N30D+R56K,0.51 0.94 0.84 0.69 0.69 0.97,0.77,0/18
S31E+G61H+T104K,n.d. n.d. n.d. n.d. n.d. n.d.,n.d.,0/18
T28Q+F59Y,2.88 1.71 1.44 1.94 1.86 2.24,2.01,3/18 (3.03)
T28S+S31D+F59W,0.67 0.51 0.50 0.68 0.53 0.79,0.61,1/18 (2.14)
S31D+F59M+A101I,0.23 0.35 0.45 -0.14 0.17 0.36,0.24,0/18
T28N+S53A+G55M+R100Q,n.d. n.d. 0.89 n.d. n.d. n.d.,0.89,0/18
F27N+S31E+A101C,n.d. 2.29 n.d. n.d. n.d. 1.69,1.99,0/18
S31E+G61S+T104H+D106M,n.d. n.d. n.d. n.d. n.d. n.d.,n.d.,0/18
T28S+S31D+F59L+G61I,1.48 2.49 n.d. 1.18 3.64 1.73,2.10,0/18
S31D+G61S+A101L+S107T,0.64 0.68 0.36 0.38 0.10 0.37,0.42,0/18

Extract of 7 entries:

changes,"replicates, log10 nM","log10 Kd (nM), mean",empty controls
S31N+R100Q+A101L,n.d. n.d. n.d. n.d. n.d. n.d.,n.d.,0/18
N30D+R100S,1.33 0.62 1.08 1.58 0.17 1.13,0.98,0/18
G61D+R100Q+A101T+S107D,0.12 0.40 -0.15 n.d. n.d. 0.82,0.30,0/18
G26K+G61Q+R100Q+A101T,n.d. n.d. n.d. n.d. n.d. 2.44,2.44,0/18
F27N+S31E+A101C,n.d. 2.29 n.d. n.d. n.d. 1.69,1.99,0/18
T28Y+S31D+F59Q+G61I,n.d. 3.44 n.d. 3.22 1.23 n.d.,2.63,0/18
T28P+S31D+G61K,1.51 1.72 1.58 1.69 1.90 1.22,1.60,0/18

From the AlphaSeq antibody data of Li et al. 2023 (doi:10.1038/s41467-023-39022-2), copy in the FLAb collection.